Source: PMC137065 (Journal of Biology, 2002)

Test system: Hh signaling
Experiment: luciferase-based reporter assay of Hh signaling in C3H10T1/2 cells
Format: cell-based
Details: cells activated by Hh-Ag 1.2 (200 nM)

Structure (SMILES): CC1=C2C[C@H]3[C@@H](CC=C4C[C@@H](O)CC[C@@]43C)[C@@H]2CC[C@]12O[C@@H]1C[C@H](C)CN[C@H]1[C@H]2C [cyclopamine]
- effect on pathway activation by the agonist: inhibitory
